Assay results as given in patent US20100055093A1, “PAN-CELL SURFACE RECEPTOR-SPECIFIC THERAPEUTICS” (RECEPTOR BIOLOGIX INC., priority 2006, published 2010).
Read-outs that look alike come from different tables or passages of the source. Marks after values point to notes of the source that are not given here.

Columns and labels:
[1] = system: MCF-7 cells; experiment: Monolayer cell proliferation, crystal violet; format: cell-based; conditions: MCF-7, Breast, monolayer culture
Experimental: (§1) Cell proliferation studies were conducted in serum-free medium as indicated. Cells were plated in 96-well tissue culture plates (Falcon #35-3075, Becton Dickinson, N.J.) at 2000 to 6000 cells per well, as appropriate for a cell line, and then grown overnight (15 to 18 hrs). For the cell proliferation studies done in serum containing medium, the cells were then treated with or without compounds and allowed to grow for 3 to 5 days. […] After plating cells in serum, the cells were grown overnight (15 to 20 hrs), then the cells were switched to serum-free medium and grown for 24 to 48 hrs (serum-starvation). […] Cell proliferation was quantified by crystal violet dye method as described previously (Sugarman et al., 1987). Briefly, the culture medium was decanted, the cells washed once with PBS, followed by addition of 50 μl/well 0.5% (w/v) crystal violet dye (Sigma-Aldrich, St Loius, Mo.) in methanol and incubation for 20 min. The plates were washed with water 3-times and then air-dried overnight. The cell-bound dye was eluted with 100 μl/well Sorenson's buffer (25 mM sodium citrate in 50% ethanol) for 15 min on a plate shaker. The plate was then read on a plate reader at 540 nm wavelength for absorbance, which was directly proportional to the amount of cells in the well.
(§2) Cell proliferation studies were conducted in either serum containing or in serum-free medium as indicated. Cells were plated in 96-well tissue culture plates (Falcon #35-3075, Becton Dickinson, N.J.) at 2000 to 6000 cells per well, as appropriate for a cell line, and then grown overnight (15 to 18 hrs). For the cell proliferation studies done in serum containing medium, the cells were then treated with or without compounds and allowed to grow for 3 to 5 days. For cell proliferation studies done in serum-free growth conditions. After plating cells in serum, the cells were grown overnight (15 to 20 hrs), then the cells were switched to serum-free medium and grown for 24 to 48 hrs (serum-starvation). […] Cell proliferation was quantified by crystal violet dye method as described previously (Sugarman et al., 1987). Briefly, the culture medium was decanted, the cells washed once with PBS, followed by addition of 50 μl/well 0.5% (w/v) crystal violet dye (Sigma-Aldrich, St Loius, Mo.) in methanol and incubation for 20 min. The plates were washed with water 3-times and then air-dried overnight. The cell-bound dye was eluted with 100 μl/well Sorenson's buffer (25 mM sodium citrate in 50% ethanol) for 15 min on a plate shaker. The plate was then read on a plate reader at 540 nm wavelength for absorbance, which was directly proportional to the amount of cells in the well.

[2] = system: T47D cells; experiment: Monolayer cell proliferation, crystal violet; format: cell-based; conditions: Breast, monolayer culture
Experimental: as §1, §2

[3] = system: H358 cells; experiment: Monolayer cell proliferation, crystal violet; format: cell-based; conditions: H358, Lung, monolayer culture
Experimental: as §1, §2

[4] = system: H1437 cells; experiment: Monolayer cell proliferation, crystal violet; format: cell-based; conditions: H1437, Lung, monolayer culture
Experimental: as §1, §2

[5] = system: BT-474 cells; experiment: Monolayer cell proliferation, crystal violet; format: cell-based; conditions: BT-474, Breast, monolayer culture
Experimental: as §1, §2

[6] = system: SUM149 cells; experiment: Monolayer cell proliferation, crystal violet; format: cell-based; conditions: SUM149, Breast, monolayer culture
Experimental: as §1, §2

[7] = system: H1975 cells; experiment: Monolayer cell proliferation, crystal violet; format: cell-based; conditions: H1975, Lung, monolayer culture
Experimental: as §1, §2

[8] = system: HCC4006 cells; experiment: Monolayer cell proliferation, crystal violet; format: cell-based; conditions: HCC4006, Lung, monolayer culture
Experimental: as §1, §2

[9] = system: Calu-6 cells; experiment: Monolayer cell proliferation, crystal violet; format: cell-based; conditions: Calu-6, Lung, monolayer culture
Experimental: as §1, §2

[10] = system: A431 s.c. tumor; format: in vivo, nude mice
Experimental: Mice were obtained from the commercial suppliers (Harlan, UK). The mice were 4-6 weeks old at the start of the study. Mice were maintained in sterile isolators within a barriered unit illuminated by fluorescent lights set to give a 12 hour light-dark cycle (on 07.00, off 19.00), as recommended in the United Kingdom Home Office Animals (Scientific Procedures) Act 1986. The room was air-conditioned by a system designed to maintain an air temperature range of 23±2° C. Mice were housed in groups of 2 or 5 during the procedure in plastic cages (Techniplast UK) with irradiated bedding and provided with both nesting materials and environmental enrichment. Sterile irradiated 2019 rodent diet (Harlan […] UK, product code […]) and autoclaved water was offered ad libitum. […] A431 cells were supplied by the PRECOS and maintained in vitro in RPMI 1640 culture medium (Gibco, Paisley, UK) containing 10% (v/v) heat inactivated foetal bovine serum (Sigma, Poole, UK) at 37° C. in 5% CO2 and humidified conditions. […] Tumor dimensions were recorded (calliper measurement of length and width and tumor cross-sectional area and volume calculated) three times weekly and body weight measured weekly. Each mouse remained in the study until terminated, or until necessitate removal of that mouse from the study. Animals were terminated if the tumor size becomes excessive or any adverse effects are noted. At termination the mice were anaesthetized (Hypnorm/Hynovel) and 1 ml blood removed by cardiac puncture, processed for plasma, frozen for both the pilot and therapeutic study. The mice were then terminated by an approved S1 method. For the therapeutic study, the tumors were excised, weighed, measured and fixed in formalin. Body weight data, tumor growth and final tumor weight were recorded and reported in spreadsheet and graphical format. Statistical analysis was performed if appropriate using Minitab. Pilot toxicity study was terminated after 12 days of dosing in order to collect plasma samples 3 hours after dosing. An extra group for the therapeutic study was added by PRECOS as below. Group 9: 30 mg/kg human IgG i.p. 3 times weekly. Iressa was prepared by PRECOS in 10% DMSO & 5% Cremaphor in PBS. Tumors were initiated with 2×10^6 cells per mouse for the therapeutic study. RB200h and IgG was dosed intravenously for the therapeutic study as requested by the sponsors. Due to adverse effects noted following the first dose in groups 2, 3 & 8 dosing was reverted back to i.p. for the remainder of the study.

[11] = 10 mg/kg RB200h three times weekly
[12] = Group 2, 10 mg/kg RB200h, group mean
[13] = Group 3, 30 mg/kg RB200h, group mean

RB200h: heterodimer: full length HER 1 ECD linked to full length HER 3 ECD via Fc domain (HER1-621/Fc and HER3-621/Fc with His tag)
RB200 Efficacy (growth inhibition of cells) [1]: − (− = <10%) | RB200 Efficacy (growth inhibition of cells) [2]: − (− = <10%) | RB200 Efficacy (growth inhibition of cells) [3]: − (− = <10%) | RB200 Efficacy (growth inhibition of cells) [4]: +++ (+++ = 31 to 50% growth inhibition of cells by RB200) | RB200 Efficacy (growth inhibition of cells) [5]: ++ (++ = 21 to 30%) | RB200 Efficacy (growth inhibition of cells) [6]: + (+ = 10 to 20%) | RB200 Efficacy (growth inhibition of cells) [7]: + (+ = 10 to 20%) | RB200 Efficacy (growth inhibition of cells) [8]: − (− = <10%) | RB200 Efficacy (growth inhibition of cells) [9]: − (− = <10%) | A431 tumor growth [10, 11]: did not significantly attenuate | trend to decreasing the tumor size [10, 11]: 15-20% | reduction of final tumor weight ([10]; 30 mg/kg RB200h three times weekly (Group 3)): 50% | tumor growth (rate) in comparison to the vehicle group ([10]; 30 mg/kg three times weekly, dosing from day 10, study terminated at day 26): significantly reduced | Tumor volume (mm^3) Day 7 [10, 12]: 39.2 mm^3 | Tumor volume (mm^3) Day 10 [10, 12]: 72.2 mm^3 | Tumor volume (mm^3) Day 12 [10, 12]: 102.5 mm^3 | Tumor volume (mm^3) Day 14 [10, 12]: 149.3 mm^3 | Tumor volume (mm^3) Day 17 [10, 12]: 221.5 mm^3 | Tumor volume (mm^3) Day 19 [10, 12]: 278.5 mm^3 | Tumor volume (mm^3) Day 21 [10, 12]: 365.7 mm^3 | Tumor volume (mm^3) Day 24 [10, 12]: 564.3 mm^3 | Tumor volume (mm^3) Day 25 [10, 12]: 596.1 mm^3 | Tumor volume (mm^3) Day 26 [10, 12]: 676.7 mm^3 | Tumor weight ([10]; Group 2, 10 mg/kg RB200h, final tumor weight, group mean): 0.451 g | Tumor volume (mm^3) Day 7 [10, 13]: 40.0 mm^3 | Tumor volume (mm^3) Day 10 [10, 13]: 53.7 mm^3 | Tumor volume (mm^3) Day 12 [10, 13]: 72.5 mm^3 | Tumor volume (mm^3) Day 14 [10, 13]: 107.7 mm^3 | Tumor volume (mm^3) Day 17 [10, 13]: 154.3 mm^3 | Tumor volume (mm^3) Day 19 [10, 13]: 225.0 mm^3 | Tumor volume (mm^3) Day 21 [10, 13]: 298.1 mm^3 | Tumor volume (mm^3) Day 24 [10, 13]: 370.3* mm^3 | Tumor volume (mm^3) Day 25 [10, 13]: 440.4* mm^3 | Tumor volume (mm^3) Day 26 [10, 13]: 462.5* mm^3 | Tumor weight (g) ([10]; Group 3, 30 mg/kg RB200h, final tumor weight, group mean): 0.270* g
